Assay results taken from patent US11267811B2, “Small molecule inhibitors of galectin-3” (BRISTOL-MYERS SQUIBB COMPANY, priority 2017, dated 2022).
Like-named read-outs stand apart in the source and are kept apart here.

Sequences of proteins named here, by UniProt entry; tags and fusion partners are left off.
UniProt P17931, whole entry: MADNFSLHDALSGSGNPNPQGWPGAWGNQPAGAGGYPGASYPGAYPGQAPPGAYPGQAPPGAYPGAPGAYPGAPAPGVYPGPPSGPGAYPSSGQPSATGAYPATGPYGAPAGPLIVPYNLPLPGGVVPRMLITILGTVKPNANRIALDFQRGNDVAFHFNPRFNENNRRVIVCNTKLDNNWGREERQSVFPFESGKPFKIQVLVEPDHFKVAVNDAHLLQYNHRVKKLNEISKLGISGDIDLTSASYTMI

Biological target: His-tagged recombinant human Gal-3 (hGal-3) (Homo sapiens (Human), UniProt P17931)
Assay: Gal-3 HTRF assay (His-tagged hGal-3 binding to B-ASF);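 further: compounds preincubated 30 min with hGal-3, then 1 h with B-ASF, detection via terbium anti-His antibody and streptavidin d2. Control with B-ASF counts as full signal, omitting B-ASF as background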
[1] = read-out: hGal-3 IC50, HTRF, hGal-3 15 nM, B-ASF 15 nM

| Compound | IC50 [1] [nM] | IC50 (read-out: hGal IC50) [nM] |
| --- | --- | --- |
| OC[C@H]1O[C@@H](c2ncnn2-c2ccc(Cl)cc2Cl)[C@H](O)[C@@H](n2cc(-c3cc(F)c(F)c(F)c3)nn2)[C@H]1O | 590 |  |
| Cn1cnc2ccc(-n3cnnc3[C@@H]3O[C@H](CO)[C@H](O)[C@H](n4cc(-c5cc(F)c(F)c(F)c5)nn4)[C@H]3O)cc21 | 30 |  |
| Cc1nc([C@@H]2O[C@H](CO)[C@H](O)[C@H](n3cc(-c4cc(F)c(Cl)cc4F)nn3)[C@H]2O)n(-c2cc(Cl)ccc2C(F)(F)F)n1 |  | 46 |
